Results: PubChem BioAssay AID1910 (Broad Institute, 2009)
The list shows a part of the results, in another mix than the full data. Some results for these compounds are left out of this collection, so the calls shown say nothing about other tests. The source made the active and inactive calls.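 How the source made its calls: active means mean activation of at least 10% of the iron chelator positive control signal, with at least half of replicates also reaching 10%; inconclusive means mean and replicate majority disagree about reaching 10%; inactive means mean and most replicates under 10%.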

Test: HIF pathway transcriptional activators, primary screen, cell-based, U2OS HRE-luciferase, luminescence (AID 1910)
Details: U2OS HRE-luciferase reporter, stronger effect = higher value, screened at 7.5 µM (by protocol), normalized: DMSO 0%, desferrioxamine 100%
For `COc1ccc(Br)c(C(=O)NCC2(N3CCCCC3)CCCCC2)c1`, the activation was inactive: -2.5%. With `CC(C)Oc1ccc(C(=O)NCC2(N(C)C)CCCCC2)cc1` the activation was inactive: -3.45%. For `CN(C)c1cccc(C(=O)NCC2(N(C)C)CCCCC2)c1`, the activation was inactive: 0.0288%. For `O=C(OC1CN2CCC1CC2)C(CO)(c1ccccc1)c1ccccc1` (centres undefined), the activation was inactive: 0.885%. For `COc1cccc(C(=O)NCC2(N3CCCCC3)CCCCC2)c1`, the activation was inactive: -0.545%. With `COc1ccc(Cl)cc1C(=O)NCC1(N(C)C)CCCCC1` the activation was inactive: 0.287%. For `O=C(NCC1(N2CCCCC2)CCCCC1)c1cccc(Cl)c1`, the activation was inactive: 1.17%. With `CN(C)C1(CNC(=O)c2ccc(Br)cc2)CCCCC1` the activation was inactive: 1.68%. For `COc1cc(C(=O)NCC2(N(C)C)CCCCC2)c([N+](=O)[O-])cc1OC`, the activation was inactive: -13.3%. In the case of `C=CCN1CCN(CCOC(=O)C(O)(c2ccccc2)c2ccccc2)CC1`, the activation is reported as inactive: -0.634%. In the case of `O=C(NCC1(N2CCCCC2)CCCCC1)c1cc(F)c(F)cc1Cl`, the activation is reported as inactive: -0.55%. In the case of `COc1ccc(C(=O)NCC2(N(C)C)CCCCC2)cc1`, the activation is reported as inactive: -4.88%. In the case of `Cc1cc(C(=O)NCC2(N3CCCCC3)CCCCC2)ccc1[N+](=O)[O-]`, the activation is reported as inactive: 0.772%. For `CCN1CCCC(OC(=O)C2(O)c3ccccc3C=Cc3ccccc32)C1` (centres undefined), the activation was inactive: -0.431%. For `O=C(NCC1(N2CCCCC2)CCCCC1)c1cccc(Br)c1`, the activation was inactive: -0.167%. With `Cc1ccccc1C(=O)NCC1(N2CCCCC2)CCCCC1` the activation was inactive: 0.433%. For `CN(C)C1CCCC1OC(=O)C(O)(c1ccccc1)c1ccccc1` (centres undefined), the activation was inactive: 1.19%. With `CN(C)c1ccc(C(=O)NCC2(N(C)C)CCCCC2)cc1` the activation was inactive: 0.518%. In the case of `CCN(CC)CC(C)C(C)OC(=O)C(O)(c1ccccc1)c1ccccc1` (centres undefined), the activation is reported as inactive: -0.0639%. In the case of `COc1cc(SC)ccc1C(=O)NCC1(N(C)C)CCCCC1`, the activation is reported as inactive: 0.0349%. In the case of `CC(C)N1C(=O)CC2(CCN(CCOC(=O)C(O)(c3ccccc3)c3ccccc3)CC2)C1=O`, the activation is reported as inactive: -0.102%. In the case of `Cc1ccc(C(=O)NCC2(N3CCCCC3)CCCCC2)cc1`, the activation is reported as inactive: 0.421%. In the case of `O=C(NCC1(N2CCCCC2)CCCCC1)c1cc([N+](=O)[O-])ccc1Cl`, the activation is reported as inactive: -0.536%. In the case of `CN1[C@@H]2CC[C@H]1CC(OC(=O)C(O)(c1ccccc1)c1ccccc1)C2` (some centres undefined), the activation is reported as inactive: 0.0763%.
